Assay: In vitro metabolism test using liver microsomes (Ms)
Conditions: liver microsomes 1.0 mg/mL, substrate 5.0 μM, NADPH 1.0 mM, 37° C., pH 7.4

| MR (metabolic rate at its maximum) [nmol/min./mg protein] | Compound |
| --- | --- |
| 0.102 | Cc1cc2nc(SCCCC(=O)O)n(Cc3csc4ccc(Cl)cc34)c2cc1C |
| 0.329 | Cc1ccc2c(c1)c(Cn1c(SCCCC(=O)O)nc3ccccc31)cn2C |
| 0.129 | Cn1cc(Cn2c(SCCCC(=O)O)nc3ccccc32)c2c(Cl)cccc21 |
| 0.159 | Cc1cccc2c1c(Cn1c(SCCCC(=O)O)nc3cc(Cl)c(Cl)cc31)cn2C |
| 0.048 | Cc1cccc2scc(Cn3c(SCCCC(=O)O)nc4ccccc43)c12 |
| 0.088 | Cc1cc2nc(SCCCC(=O)O)n(Cc3cn(C)c4cccc(Cl)c34)c2cc1C |
